Values of other authors in patent US4255433A, “(+)-(3-Methyl-4-oxo-5N-piperidinothiazolidin-2-ylidene)acetic acid esters, method of preparation and use” (Godecke Aktiengesellschaft, priority 1979, dated 1981).

Tested on: mice
Details: mouse, in vivo; cited from earlier work

SMILES: Nc1nc(N)c2nc(-c3ccccc3)c(N)nc2n1 [Compound G, 6-phenyl-2,4,7-pteridinetriamine]
- LD50: 450 mg/kg
